# Results from ChEMBL document CHEMBL1157575, “Antitumor agents. 272. Structure-activity relationships and in vivo selective anti-breast cancer activity of novel neo-tanshinlactone analogues” (J Med Chem, 2010).
# Organism: Homo sapiens
# Test: Selectivity for ED50 for human SK-BR-3 to ED50 for human MCF7
# Format: functional
row,SMILES,Ratio ED50
1,CCCc1cccc2c1ccc1c3occ(C)c3c(=O)oc21,10
2,COc1cccc2c1ccc1c3occ(C)c3c(=O)oc21,10
3,CCOc1cccc2c1ccc1c3occ(C)c3c(=O)oc21,10
4,Cc1coc2c1c(=O)oc1c3cccc(C(C)C)c3ccc21,10
